Earlier results as cited in patent US8377903B2, “Cladribine regimen for treating multiple sclerosis” (Merck Serono SA, priority 2004, dated 2013).

Tested on: Relapsing-Remitting Multiple Sclerosis (RRMS)
Conditions: subcutaneously three times per week; cited from earlier work

B1: interferon beta-1a: Rebif® is interferon (IFN)-beta 1a, produced from mammalian cell lines (protein, UniProt P01574 22-187, looked up)
Interferon beta: MSYNLLGFLQRSSNFQCQKLLWQLNGRLEYCLKDRMNFDIPEEIKQLQQFQKEDAALTIYEMLQNIFAIFRQDSSSTGWNETIVENLLANVYHQINHLKTVLEEKLEKEDFTRGKLMSSLHLKRYYGRILHYLKAKEYSHCAWTIVRVEILRNFYFINRLTGYLRN
- efficacy in RRMS: efficacious
